Source: patent US9883997B2, “Cosmetic compositions with tricyclodecane amides” (Conopco, Inc., priority 2013, dated 2018)

How the values were obtained:
[1] = Precursor cosmetic compositions evaluated for crystals content, i.e. solubility of solid agent in the liquid agent (Example 29); type: physicochemical
Experimental: The following precursor cosmetic compositions were prepared and evaluated for crystals content, i.e. solubility of solid agent in the liquid agent.
The composition is heated to a temperature above the melting point of the highest melting compound, then allowed to cool to room temperature. […] In the case of end use cosmetic compositions visualization of the crystals of solid agent was done by comparing a sample with and without tricyclodecane amide and observing the formation of crystals, if any, under the optical microscope fitted with cross-polarizers at a magnification of 10× or higher.

[2] = solid cosmetic agents, Table 1; cited from earlier work

Row | Compound | Appearance after cooling - observation at 24 hours, except as noted ([1]; Salicylic acid (20%) in conjugated linoleic acid (80%), [S]/[L] .3, no tricyclodecaneamide) | Appearance after cooling - observation at 24 hours, except as noted ([1]; Salyclic acid (10%) in OMC (90%), [S]/[L] 0.1, no tricyclodecaneamide) | Log Po/w [2] | Appearance after cooling - observation at 24 hours, except as noted ([1]; Avobenzone (41%) in OMC (59%), [S]/[L] 0.7, no tricyclodecaneamide)
1 | O=C(O)c1ccccc1O [Salicylic Acid] | opaque solid | crystal + liquid | 2.01 | 
2 | COc1ccc(C(=O)CC(=O)c2ccc(C(C)(C)C)cc2)cc1 [Avobenzone] |  |  | 4.19 | crystals + liquid
